Measured values: PMC7968374 (Bioorganic & medicinal chemistry, 2021)

Key:
[1] = system: Hsp27c C59A (Site 1); conditions: C59A vs wild type; minor effect
[2] = system: Hsp27c T61L (Site 1); conditions: T61L vs wild type; minor effect
[3] = system: Hsp27c L21A (Site 1); conditions: L21A vs wild type; minor effect
[4] = system: Hsp27c V23A (Site 3); conditions: V23A vs wild type
[5] = system: Hsp27c I56A (Site 3); conditions: I56A vs wild type

## O=[N+]([O-])c1ccc(Oc2ccc(F)cc2F)c([N+](=O)[O-])c1 [Compound 12, 1-(2,4-difluorophenoxy)-2,4-dinitrobenzene]
[1]
  effect on apparent binding affinity: 2–4 fold
[2]
  effect on apparent binding affinity: 2–4 fold
[3]
  effect on apparent binding affinity: 2–4 fold
[4]
  affinity weakened: ~ 4 fold
[5]
  affinity weakened: ~ 4 fold
